Data as given in patent US7919329B2, “Method for screening for agents that affect food intake” (Oregon Health & Science University, priority 2001, dated 2011).

Chains of the proteins cited; added tags and fusions are not shown.
UniProt P42866, whole entry: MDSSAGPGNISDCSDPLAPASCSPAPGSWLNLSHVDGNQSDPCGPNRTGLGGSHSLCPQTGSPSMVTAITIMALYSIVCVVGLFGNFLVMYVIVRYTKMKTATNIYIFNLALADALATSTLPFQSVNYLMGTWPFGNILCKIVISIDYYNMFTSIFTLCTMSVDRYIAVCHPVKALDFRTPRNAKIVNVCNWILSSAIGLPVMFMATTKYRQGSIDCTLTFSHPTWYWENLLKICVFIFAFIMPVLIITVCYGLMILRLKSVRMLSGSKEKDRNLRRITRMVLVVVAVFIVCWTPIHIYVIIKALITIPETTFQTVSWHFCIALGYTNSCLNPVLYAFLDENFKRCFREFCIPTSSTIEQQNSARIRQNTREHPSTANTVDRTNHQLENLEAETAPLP

Molecular target: μ opioid receptor (MOP-R) (Mus musculus, UniProt P42866)
Assay type: cell-based

CTAP
current induced by Met-Enk in POMC cells: completely prevented the current induced by Met-Enk
